The results in this text go back to patent publication US8138334B2, “Substituted oxa-diaza-spiro-[5.5]-undecanone derivatives and their use as neurokinin antagonists” (Janssen Pharmaceutica N.V., priority 2005, dated 2012).

Chains of the proteins cited; added tags and fusions are not shown.
UniProt P25103, whole entry: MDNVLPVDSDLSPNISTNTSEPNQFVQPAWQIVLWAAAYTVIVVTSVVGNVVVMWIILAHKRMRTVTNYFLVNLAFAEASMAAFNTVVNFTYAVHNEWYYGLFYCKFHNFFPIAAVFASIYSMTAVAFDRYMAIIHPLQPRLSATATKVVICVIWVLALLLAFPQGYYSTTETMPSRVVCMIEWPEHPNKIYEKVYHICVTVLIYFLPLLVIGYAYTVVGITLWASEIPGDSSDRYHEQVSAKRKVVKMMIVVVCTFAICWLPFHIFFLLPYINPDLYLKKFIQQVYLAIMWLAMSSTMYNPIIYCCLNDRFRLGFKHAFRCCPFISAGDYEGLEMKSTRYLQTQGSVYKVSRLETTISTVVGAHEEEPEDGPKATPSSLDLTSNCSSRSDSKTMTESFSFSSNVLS
UniProt P29371, whole entry: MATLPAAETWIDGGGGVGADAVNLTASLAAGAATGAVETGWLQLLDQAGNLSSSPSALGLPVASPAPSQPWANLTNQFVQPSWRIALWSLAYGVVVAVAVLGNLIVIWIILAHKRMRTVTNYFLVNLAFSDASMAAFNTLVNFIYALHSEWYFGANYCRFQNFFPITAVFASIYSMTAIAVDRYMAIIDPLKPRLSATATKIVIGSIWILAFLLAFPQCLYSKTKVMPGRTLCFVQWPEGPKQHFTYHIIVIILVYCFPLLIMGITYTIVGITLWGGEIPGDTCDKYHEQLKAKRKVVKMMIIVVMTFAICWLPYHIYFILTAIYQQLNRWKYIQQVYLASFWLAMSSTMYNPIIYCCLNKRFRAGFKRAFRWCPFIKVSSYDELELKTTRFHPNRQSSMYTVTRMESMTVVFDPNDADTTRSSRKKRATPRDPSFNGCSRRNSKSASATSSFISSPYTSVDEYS
UniProt P21452, whole entry: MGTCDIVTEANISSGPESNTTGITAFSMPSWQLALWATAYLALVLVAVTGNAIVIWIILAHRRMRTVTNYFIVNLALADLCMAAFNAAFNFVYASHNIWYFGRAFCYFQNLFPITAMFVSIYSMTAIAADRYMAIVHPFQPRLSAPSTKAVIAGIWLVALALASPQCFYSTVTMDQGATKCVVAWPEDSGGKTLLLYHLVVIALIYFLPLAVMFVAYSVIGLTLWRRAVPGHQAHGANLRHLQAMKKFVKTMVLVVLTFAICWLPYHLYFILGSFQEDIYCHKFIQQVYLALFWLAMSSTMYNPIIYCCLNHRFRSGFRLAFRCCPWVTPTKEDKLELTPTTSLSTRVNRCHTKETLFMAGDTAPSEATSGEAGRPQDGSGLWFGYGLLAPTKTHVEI

Each structure is given as a SMILES string.

Holding throughout (details): antagonist
The target in one test is NK1 (Homo sapiens, UniProt P25103). Description: Signal transduction (ST), intracellular Ca++ FLIPR, NK1. How it is done: This test evaluates in vitro functional NK1 antagonistic activity. For the measurements of intracellular Ca^++ concentrations the cells were grown on 96-well (black wall/transparent bottom) plates from Costar for 2 days until they reached confluence. The cells were loaded with 2 μM Fluo3 in DMEM containing 0.1% BSA and 2.5 mM probenecid for 1 h at 37° C. They were washed 3× with a Krebs buffer (140 mM NaCl, 1 mM MgCl2×6H2O, 5 mM KCl, 10 mM glucose, 5 mM HEPES; 1.25 mM CaCl2; pH 7.4) containing 2.5 mM probenecid and 0.1% BSA (Ca^++-buffer). The cells were preincubated with a concentration range of antagonists for 20 min at RT and Ca^++-signals after addition of the agonists were measured in a Fluorescence Image Plate Reader (FLIPR from Molecular Devices, Crawley, England). The peak of the Ca^++-transient was considered as the relevant signal and the mean values of corresponding wells were analysed as described below.
The sigmoidal dose response curves were analysed by computerised curve-fitting, using the GraphPad Program. The EC50-value of a compound is the effective dose showing 50% of maximal effect. For mean curves the response to the agonist with the highest potency was normalised to 100%. For antagonist responses the IC50-value was calculated using non-linear regression. […]

In the next test the target is NK3 (Homo sapiens, UniProt P29371). Description: Signal transduction (ST), intracellular Ca++ FLIPR, NK3.
The target in another test is NK2 (Homo sapiens, UniProt P21452). Description: Signal transduction (ST), intracellular Ca++ FLIPR, NK2.

Consider `O=C(c1ccsc1)N1CCC2(CC1)CCN([C@H]1CCN(C(=O)c3cc(C(F)(F)F)cc(C(F)(F)F)c3)[C@H](Cc3ccccc3)C1)C(=O)O2`, for which the “NK1 pIC50” value on NK1 turned out to be 8.1. Also, the “NK3 pIC50” value at NK3 is reported as 5.2.

For `O=C1OC2(CCN1Cc1ccccc1Cl)CCN([C@H]1CCN(C(=O)c3cc(C(F)(F)F)cc(C(F)(F)F)c3)[C@H](Cc3ccccc3)C1)CC2`, the “NK1 pIC50” value on NK1 is reported as 6.4. Besides, on NK3, the “NK3 pIC50” value is listed as 5.1. The “NK2 pIC50” value on NK2 worked out at 5.2.

With `O=C1OC2(CCN1Cc1ccccc1Cl)CCN([C@@H]1CCN(C(=O)c3cc(C(F)(F)F)cc(C(F)(F)F)c3)[C@H](Cc3ccccc3)C1)CC2`, the “NK1 pIC50” value on NK1 is given as 6.1. Further, the “NK3 pIC50” value at NK3 is 5.5. For the same compound, on NK2, the “NK2 pIC50” value was <5.
